Sequences of proteins named here, by UniProt entry; tags and fusion partners are left off.
UniProt P15170, whole entry: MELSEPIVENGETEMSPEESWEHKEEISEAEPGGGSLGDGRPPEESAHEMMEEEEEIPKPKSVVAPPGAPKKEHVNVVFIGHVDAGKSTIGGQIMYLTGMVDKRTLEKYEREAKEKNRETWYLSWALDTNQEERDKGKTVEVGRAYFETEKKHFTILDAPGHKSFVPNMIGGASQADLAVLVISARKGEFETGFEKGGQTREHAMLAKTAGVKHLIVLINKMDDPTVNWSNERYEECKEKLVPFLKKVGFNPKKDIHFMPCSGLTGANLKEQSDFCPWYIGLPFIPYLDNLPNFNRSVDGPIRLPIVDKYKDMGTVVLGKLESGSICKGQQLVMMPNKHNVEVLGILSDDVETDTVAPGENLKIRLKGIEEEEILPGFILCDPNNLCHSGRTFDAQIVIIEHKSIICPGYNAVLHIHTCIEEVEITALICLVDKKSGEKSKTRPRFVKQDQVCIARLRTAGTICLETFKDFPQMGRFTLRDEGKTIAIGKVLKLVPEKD
UniProt Q96SW2, whole entry: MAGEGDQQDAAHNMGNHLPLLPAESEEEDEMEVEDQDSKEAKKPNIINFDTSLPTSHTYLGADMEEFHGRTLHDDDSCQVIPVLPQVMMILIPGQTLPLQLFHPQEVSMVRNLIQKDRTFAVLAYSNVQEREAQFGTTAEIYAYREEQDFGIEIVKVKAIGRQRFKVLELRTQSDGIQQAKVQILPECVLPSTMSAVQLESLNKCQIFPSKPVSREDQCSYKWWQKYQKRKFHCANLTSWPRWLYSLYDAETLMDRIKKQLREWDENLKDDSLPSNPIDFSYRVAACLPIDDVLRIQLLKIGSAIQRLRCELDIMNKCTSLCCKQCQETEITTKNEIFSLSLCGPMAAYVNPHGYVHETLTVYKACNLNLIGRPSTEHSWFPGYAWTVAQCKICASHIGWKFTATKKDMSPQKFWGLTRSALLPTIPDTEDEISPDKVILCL
UniProt Q16531, whole entry partner: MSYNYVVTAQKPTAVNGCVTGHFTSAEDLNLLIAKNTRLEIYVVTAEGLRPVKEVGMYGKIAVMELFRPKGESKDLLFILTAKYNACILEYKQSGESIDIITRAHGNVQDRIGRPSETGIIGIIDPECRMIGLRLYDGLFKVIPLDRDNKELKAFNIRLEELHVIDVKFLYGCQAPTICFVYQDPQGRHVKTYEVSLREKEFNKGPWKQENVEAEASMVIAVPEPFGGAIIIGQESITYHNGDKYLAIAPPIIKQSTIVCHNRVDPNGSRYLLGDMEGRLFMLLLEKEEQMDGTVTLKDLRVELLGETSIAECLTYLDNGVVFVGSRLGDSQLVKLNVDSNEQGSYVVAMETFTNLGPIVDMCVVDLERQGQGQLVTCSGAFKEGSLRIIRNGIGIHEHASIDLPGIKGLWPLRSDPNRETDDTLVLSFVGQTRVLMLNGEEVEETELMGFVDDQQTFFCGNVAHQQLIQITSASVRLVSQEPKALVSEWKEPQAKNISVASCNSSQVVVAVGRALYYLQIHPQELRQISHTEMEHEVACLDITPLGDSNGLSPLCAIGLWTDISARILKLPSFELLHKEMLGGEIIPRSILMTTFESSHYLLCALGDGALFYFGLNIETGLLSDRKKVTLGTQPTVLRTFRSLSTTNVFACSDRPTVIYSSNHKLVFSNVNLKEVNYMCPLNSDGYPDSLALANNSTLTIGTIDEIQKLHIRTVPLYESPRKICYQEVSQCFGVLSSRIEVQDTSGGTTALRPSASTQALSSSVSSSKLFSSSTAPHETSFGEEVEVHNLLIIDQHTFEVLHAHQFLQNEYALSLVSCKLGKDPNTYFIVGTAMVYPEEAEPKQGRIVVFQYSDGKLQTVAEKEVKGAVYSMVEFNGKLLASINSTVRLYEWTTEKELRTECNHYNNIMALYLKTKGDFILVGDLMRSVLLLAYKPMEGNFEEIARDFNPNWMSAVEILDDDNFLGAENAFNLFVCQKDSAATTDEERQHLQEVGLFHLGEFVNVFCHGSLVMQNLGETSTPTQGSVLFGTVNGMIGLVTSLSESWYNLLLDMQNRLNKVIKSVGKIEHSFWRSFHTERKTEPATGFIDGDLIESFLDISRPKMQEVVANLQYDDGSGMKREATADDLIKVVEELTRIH

In patent US20240261274A1, “TREATMENT OF MYC-DRIVEN CANCERS WITH GSPT1 DEGRADERS” (MONTE ROSA THERAPEUTICS, INC., priority 2021, published 2024):

Target: GSPT1 (Homo sapiens, UniProt P15170+Q96SW2)
Experiment: GSPT1 degradation immunofluorescence assay in CAL-51 cells
Conditions: read-out: Activity for GSPT1 degradation, Code (DC50), 6 hours, Table 4

For `O=C1CCC(N2Cc3ccc(CNC(=O)Nc4cc[nH]n4)cc3C2=O)C(=O)N1` (stereo not drawn), which DC50 is on record?
The DC50 was > 300 nM.

For `O=C1CCC(N2Cc3ccc(CNC(=O)Nc4cccc(-c5ncc[nH]5)c4)cc3C2=O)C(=O)N1` (stereo not drawn), which DC50 is on record?
The DC50 was > 300 nM.

For `O=C1CCC(N2Cc3ccc(CNC(=O)Nc4cc[nH]c4)cc3C2=O)C(=O)N1` (stereo not drawn), which DC50 is on record?
Its DC50 is > 300 nM.

Which DC50 does the source give for `CN1CCC(Oc2cc(Cl)cc(NC(=O)NCc3ccc4c(c3)C(=O)N(C3CCC(=O)NC3=O)C4)c2)C1` (stereo not drawn) here?
The DC50 was > 300 nM.

`CN1CCC(COc2cc(Cl)cc(NC(=O)NCc3ccc4c(c3)C(=O)N(C3CCC(=O)NC3=O)C4)c2)C1` (stereo not drawn) was tested. Which DC50 did it give?
The DC50 was > 300 nM.

For `O=C1CCC(N2Cc3ccc(CNC(=O)Nc4cn[nH]c4)cc3C2=O)C(=O)N1` (stereo not drawn), which DC50 is on record?
Its DC50 is > 300 nM.

How did the DC50 turn out when `CC(C)(C)c1ccc(NC(=O)NCc2ccc3c(c2)C(=O)N(C2CCC(=O)NC2=O)C3)cn1` (stereo not drawn) was run?
The DC50 was < 100 nM.

Which DC50 does the source give for `O=C1CCC(N2Cc3ccc(CNC(=O)Nc4cc(F)cc(OC(F)(F)F)c4)cc3C2=O)C(=O)N1` (stereo not drawn) here?
Its DC50 is > 300 nM.

With `O=C1CCC(N2Cc3ccc(CNC(=O)Nc4cc(OC(F)(F)F)ccn4)cc3C2=O)C(=O)N1` (stereo not drawn) as the molecule, how does the DC50 read?
Its DC50 is > 300 nM.
